The record followed here is PubChem BioAssay AID652134 (The Scripps Research Institute Molecular Screening Center, 2013).

Chains of the proteins cited; added tags and fusions are not shown.
UniProt P51843, whole entry: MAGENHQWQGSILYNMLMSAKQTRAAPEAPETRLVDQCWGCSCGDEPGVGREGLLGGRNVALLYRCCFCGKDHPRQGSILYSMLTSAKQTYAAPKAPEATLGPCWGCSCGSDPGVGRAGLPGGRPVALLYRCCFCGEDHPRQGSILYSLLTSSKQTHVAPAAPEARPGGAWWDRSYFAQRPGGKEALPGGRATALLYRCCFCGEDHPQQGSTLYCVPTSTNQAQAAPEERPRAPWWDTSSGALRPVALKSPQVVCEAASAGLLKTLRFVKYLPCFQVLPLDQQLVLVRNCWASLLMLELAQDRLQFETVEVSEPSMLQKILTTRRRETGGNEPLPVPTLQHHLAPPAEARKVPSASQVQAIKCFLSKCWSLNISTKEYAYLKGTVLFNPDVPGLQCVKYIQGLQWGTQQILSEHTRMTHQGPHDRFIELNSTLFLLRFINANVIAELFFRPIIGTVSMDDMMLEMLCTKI

The inhibition is the relative decrease from the control value, in per cent.

Only a part is listed here, and it is no random draw. The source made the active and inactive calls.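 Rule for the calls: active = inhibition above the average of every tested compound plus 3 SD (cut at about 3.8% in these data); inactive = the rest.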

The test deals with Nuclear receptor subfamily 0 group B member 1 (Homo sapiens) (UniProt P51843). Put plainly: NR0B1 repressor blockers, StAR reporter readout – cell-based, luminescence, HEK293T, full-length DAX-1, SF-1 activated StAR promoter, confirmation (AID 652134).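 Note: 0% = DAX-1 cells with DMSO and 100% = no DAX-1 control cells with DMSO; active compounds raise luminescence by relieving repression of the StAR reporter.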 Conditions: HEK293T StAR-promoter luciferase reporter, SF-1/DAX-1 repression; at 6.8 µM; stronger effect = higher value.
Regarding `CN(C)c1ccc(C(=O)NCC2(N3CCCCC3)CCCCC2)cc1`, the inhibition was active: 7.61%.
Regarding `CSc1ccc(C(=O)NCC2(N3CCOCC3)CCCCC2)cc1`, the inhibition was inactive: 3.45%.
`O=C(NCC1(N2CCCCC2)CCCCC1)c1ccc(=O)[nH]c1`: the inhibition was active: 8.56%.
Next, `O=C(NCC1(N2CCCCC2)CCCCC1)c1ccc(Cl)nc1`: active: 5.29%.
